Experimental data: patent US12692529B2, “Quantitative screen for the assessment of inter-individual variability in drug metabolism by the human gut microbiome” (The Trustees of Princeton University, priority 2020, dated 2026)

system: ex vivo cultures of donor gut microbiome (BG medium)

Question: Which “MDM in metabolite production across donors” value (shortened to “MDM”) does the source give for `CCCCC(C)(O)C/C=C/[C@H]1[C@H](O)CC(=O)[C@@H]1CCCCCCC(=O)OC` (mixture of isomers) [misoprostol] here?
Answer: variable

Question: How did the “MDM” value turn out when `C[C@]12CCC(=O)C=C1CC[C@@H]1[C@@H]2[C@@H](O)C[C@@]2(C)[C@H]1CC[C@]2(O)C(=O)CO` [hydrocortisone] was run?
Answer: variable

Question: How did the “MDM” value turn out when `Cc1nc2n(c(=O)c1CCN1CCC(c3noc4cc(F)ccc34)CC1)CCCC2` [risperidone] was run?
Answer: consistently positive
